Assay results taken from article PMC12606641, “Surface Density of Mono- and Trivalent High-Mannan-Derived Targeting Structures with Different Affinities Impacts Cellular Uptake of Human Serum Albumin-Derived Nanocarriers” (Biomacromolecules, 2025).

Columns and labels:
[1] = Dynamic light scattering (DLS) of HSA conjugates; type: physicochemical; details: 10–20 uM in MQ; for Size: triplicates, error = standard deviation
Experimental: Measurements of HSA-based compounds (10 μM in MQ) were performed at 25 °C using a Zetasizer Nano S (Malvern Instruments, Malvern, England) equipped with a He/Ne Laser (λ = 633 nm) and a narrow band filter at a fixed scattering angle of 173 °. Volume distribution of DLS measurements of compounds were used to determine the compounds size distribution.
Table S 2: Sizes (d. nm) and PDIs of low valency TS-HSA conjugates determined by DLS measurements (10–20 uM in MQ).
Measurements were performed in triplicates; errors are given as standard deviation.
4.2.7 Preparation of saturated TS-HSA neoglycoalbumins
DBCO47-HSA (0.3 mg, 3.24 nmol, 1 eq.) was dissolved in 50 mM phosphate buffer with 8 M urea and
2 mM EDTA (pH = 8) to a final protein concentration of 1 mg/mL. The azide functionalized TS
(855 μmol, 264 eq. or 5.6 eq/DBCO) dissolved in MQ (10 mg/mL) was added and the reaction solution
was inverted (10 rpm) at room temperature for 1 day. Afterwards, the reaction solution was purified
(1 x reaction buffer, 5 x MQ) and concentrated via ultracentrifugation spin filter (Vivaspin, PES,
10 kDa). The product was lyophilized and obtained in the form of a blue lyophilizate quantitatively.
Table S 3: Summary table of synthesized conjugates of the saturated valency regime.
Code Conjugate MALDI-ToF-MS DoM:
Figure S 2: Agarose gel electrophoresis of saturated NCs carrying different TSs (Number of Ts: Man: 43, Man 3: 45, (Man) 3:
42, (Man3)3: 38) as well as precursor conjugates DBCO 47-HSA and control conjugate C I (left Cy5-channel, right Coomassie
brilliant blue staining).
Table S 4: Sizes (d. nm) and PDIs of saturated TS-HSA conjugates determined by DLS measurements (10 –20 uM in MQ).
Conjugate Size (d. nm) PDI
(1 picture or pasted object on this page, not shown here)

[2] = test system: GM-CSF BMDCs; test: FACS analysis of cellular uptake of Cy5-labeled HSA conjugates in GM-CSF BMDCs; type: cell-based, murine; details: 50 nM conjugate, overnight incubation, Cy5 signal by FACS
Experimental: Murine bone marrow cells (2·10^5/mL for GM-CSF supplemented culture) were seeded in 12-well suspension culture plates (Greiner Bio-One, Frickenhausen, BW, Germany) in culture medium (IMDM, 2 mM L-glutamine, 100 U/mL penicillin G, 100 μg/mL streptomycin (Sigma-Aldrich, Deisenhofen, BY, Germany) and 50 μM β-mercaptoethanol (Carl Roth, Karlsruhe, BW, Germany) containing 5% FBS (PAN-Biotech, Aidenbach, BY, Germany)) supplemented with recombinant murine GM-CSF (10 ng/mL) (Miltenyi Biotec, Bergisch Gladbach, NRW, Germany). Cells were kept at 37 °C, 95% relative humidity, and 5% CO2. Culture media was replenished on day 3 and 6 with GM-CSF supplemented cell culture medium.
After treatment, GM-CSF BMDCs and splenocytes were harvested, washed with staining buffer (PBS, 1% FBS, 0.5 mM EDTA) and incubated with rat antimouse CD16/CD32 antibody (clone 2.4G2; 15 min, 4 °C) to prevent antibody binding to Fcγ receptors. Following this, the samples were incubated with fluorescence-labeled antibodies (20 min, 4 °C). Then, samples were washed with PBS and incubated with a flexible viability dye (FVD, 1:1000 in PBS, 30 min, 4 °C) to identify live/dead cells. Measurements were carried out using an Attune NxT flow cytometer and data were analyzed using Attune NxT software (both are from Thermo Fisher, Waltham, MA, USA).
To investigate the influence of the designed TSs in a more application-focused setting, we proceeded with in vitro experiments using receptors organized in their natural form. For this purpose, we synthesized different HSA-based NCs decorated with all tested TSs (section 4.2 in the Supporting Information) either within the low-valency regime carrying one to three mono- and trivalent TSs (TS I–III), six and nine monovalent TSs (TS VI, TS IX) per NC or within the saturated valency regime saturated with the maximum possible number of TSs per NC (38–45, TSsat). […] The low degrees of modification are supposed to allow a systematic study of potential contributions of avidity effects of the trivalent TSs to receptor interaction and cellular uptake, which would be otherwise superimposed by avidity effects originating from NCs with high valency. Untreated cells (UT) or cells treated with the TLR7/8 agonist R848 as well as cells treated with control conjugates, which are Cy5-labeled only (C I), DBCO-modified (13 groups, C II) or DBCO-modified and capped via SPAAC with triethylene glycol residues (C III), were used as controls for comparison. An in vitro study comprising overnight incubation of Granulocyte macrophage colony-stimulating factor (GM-CSF) BMDCs together with the Cy5-labeled TS-HSA conjugates and following FACS analysis was conducted (Figure and Figure ). […] Observed effects on uptake levels thus are assumed not to be impacted by receptor availability. Also, an influence of slow receptor recycling, which affects their availability, is unlikely for CD206 and CD209 due to the reported rapid recycling kinetics and the long incubation time overnight. , Additionally, receptor depletion, which is most relevant for nano rods and large NCs (>60 nm), is supposed to be neglectable as well due to the size (∼7 nm) and globular shape of the HSA-NCs. ,− In the following, the cellular uptake as a measure of targeting capability and thus indirectly also binding strength of the four groups of TS-HSA conjugates (M, TM, MD, TMD, Figure C) is analyzed and evaluated regarding their general uptake trend and the influence of (i) TS surface density and NC valency, (ii) the epitope type, and (iii) epitope clustering. The general uptake trends of NCs in BMDCs functionalized with increasing numbers of statistically attached TSs are visualized with a linear plot of the cellular uptake against the number of TSs per NC for all conjugates (Figure A) and by plots grouping respective conjugates to enable comparison of NC valency and surface density within each TS type (Figure C). […]

Row | Substance | PDI [1] | Size [1] [nm·days] | cellular uptake [2]
1 | TM I: Cy5-HSA nanocarrier with 1 Man3N3 TS attached | 0.978 | 9.6 ± 1.0 | –
2 | MD III: Cy5-HSA nanocarrier with 3 (Man)3N3 TS attached | 0.816 | 3.7 ± 0.6 | –
3 | M VI: Cy5-HSA nanocarrier with 6 ManN3 TS attached | 1.000 | 4.6 ± 1.3 | significant benefit
4 | TMD III: Cy5-HSA nanocarrier with 3 (Man3)3N3 TS attached | 0.697 | 6.8 ± 0.8 | –
5 | MD I: Cy5-HSA nanocarrier with 1 (Man)3N3 TS attached | 0.628 | 8.0 ± 1.0 | significantly enhanced cell uptake; also recorded: significantly higher cellular uptake than M I
6 | [Man]43-HSA [Msat] | 0.581 | 6.3 ± 1.3 | highest cellular uptake
7 | [Man]3-HSA [M III] | 0.926 | 2.8 ± 0.4 | –
8 | C II: control: DBCO-HSA with 13 DBCO groups attached | 0.844 | 5.7 ± 0.2 | limited unspecific uptake
9 | [(Man)3]42-HSA [MDsat] | 0.570 | 8.3 ± 0.1 | significant decrease in cellular uptake
10 | TMD I: Cy5-HSA nanocarrier with 1 (Man3)3N3 TS attached | 0.691 | 6.2 ± 0.2 | significantly enhanced cell uptake
11 | C I: control: Cy5-labeled HSA, maleimide ring opened | 0.703 | 6.8 ± 0.3 | limited unspecific uptake
12 | [(Man3)3]38-HSA [TMDsat] | 0.697 | 11.7 ± 0.8 | significant decrease in cellular uptake
13 | TM III: Cy5-HSA nanocarrier with 3 Man3N3 TS attached | 0.855 | 6.7 ± 0.4 | –
14 | TM IX: Cy5-HSA nanocarrier with 9 Man3N3 TS attached | 0.848 | 5.4 ± 0.2 | –
15 | C III: control: HO-PEG3-HSA, 13 DBCO groups saturated with capping reagent | 0.975 | 4.8 ± 0.5 | limited unspecific uptake
16 | [Man3]45-HSA [TMsat] | 0.692 | 6.8 ± 0.1 | outperforms TMDsat
17 | M IX: Cy5-HSA nanocarrier with 9 ManN3 TS attached | 0.827 | 7.0 ± 1.0 | –
18 | TMD II: Cy5-HSA nanocarrier with 2 (Man3)3N3 TS attached | 0.829 | 7.6 ± 0.1 | –
19 | M II: Cy5-HSA nanocarrier with 2 ManN3 TS attached | 1.000 | 4.2 ± 1.4 | –

“Also recorded” adds a separate entry of the source.
